Earlier results as cited in article PMC3953223 (Biochemistry, 2013).

Target: PfENR
Conditions: read-out: Kd, triclosan binding to PfENR; 250 µM NAD^+; cited from earlier work

**Q.** With Oc1cc(Cl)ccc1Oc1ccc(Cl)cc1Cl [Triclosan, triclosan] as the compound, how does the pKd read?
**A.** 7.49

pKd: −log10 of the molar value.
